{"source": "patent US9173923B2", "about": "“Modulating innate immune cell activity by lunasin and selected cytokines” (Indiana University Research & Technology Corporation, priority 2011, dated 2015)", "test_system": "mouse NK cells", "test": "IFNγ produced by NK cells from tumor-bearing mice with or without etoposide chemotherapy (ELISA)", "type": "cell-based", "settings": "reduced Stat4; mouse IL-12 2 ng/ml or human IL-2 50 units/ml, lunasin 20 μM; 1 day", "protocol": "FIG. 8 IFNg produced by NK cells from tumor-bearing mice with or without chemotherapy. Mouse NK cells were positively selected from spleens of tumor-bearing mice with (+Eto) or without (−Eto) chemotherapeutic drug etoposide. Isolated NK cells were stimulated with mouse IL-12 at 2 ng/ml with (+) or without (−) lunasin peptide (A) or human IL-2 at 50 units/ml with (+) or without (−) lunasin at 20 μM (B). The production of IFNγ in the supernatant after 1 day of stimulation was determined using ELISA. Results are presented as mean±SD from 3 mice. ND is not detectable.\nWe previously reported that heavily-treated NHL patients acquired STAT4 deficiency as a consequence of chemotherapy, which contributes to impaired IFNγ production following IL-12immunotherapy. Since IL-2 mediates its biological function independent of STAT4 {Lin. 2000 #648} and lunasin works synergistically with IL-2 (FIGS. 1 and 3), we wanted to test whether IL-2 alone or the combination of lunasin and IL-2 can circumvent the deficiency of IFNγ produced by NK cells that are refractory to IL-12 stimulation due to chemotherapy-induced STAT4 deficiency. In our mouse model reduced Stat4 was found in NK cells from tumor-bearing mice following chemotherapy with etoposide.", "data": [{"substance": "IL-2", "values": [{"measurement": "IFNγ production by NK cells from tumor-bearing mice following chemotherapy (+etoposide)", "result": "undetectable levels of IFNγ production"}]}]}
